Biological target: 5-HT6 receptors (Homo sapiens, UniProt P50406)
Experiment: Adenylyl cyclase activity (cAMP accumulation) in HeLa cells transfected with human 5-HT6 receptor
Type: cell-based
Conditions: 5-HT-induced cAMP increase

Protein sequences, listed by entry. Tags and fused reporters are not part of them.
UniProt P50406, whole entry: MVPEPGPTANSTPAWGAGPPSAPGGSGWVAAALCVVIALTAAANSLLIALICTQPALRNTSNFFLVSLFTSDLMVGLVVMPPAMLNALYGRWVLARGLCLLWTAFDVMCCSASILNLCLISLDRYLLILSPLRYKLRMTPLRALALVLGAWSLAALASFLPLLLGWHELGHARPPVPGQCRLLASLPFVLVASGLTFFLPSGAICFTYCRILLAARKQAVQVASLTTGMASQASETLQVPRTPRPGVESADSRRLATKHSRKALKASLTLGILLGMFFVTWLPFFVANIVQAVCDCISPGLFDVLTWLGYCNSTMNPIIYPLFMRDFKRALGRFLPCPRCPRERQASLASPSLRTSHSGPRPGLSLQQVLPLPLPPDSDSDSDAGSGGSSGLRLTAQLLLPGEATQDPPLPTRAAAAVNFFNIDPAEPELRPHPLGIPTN

increase in cAMP level inhibited (FIG. 1): inhibited
Compound: CSc1ccc2c(c1)C(N1CCN(C)CC1)Cc1ccccc1S2 (stereo not shown) [methiothepin, reference compound]
